US20260258397A1, “REAGENTS AND SYSTEMS FOR GENERATING BIOSENSORS” (priority 2023, published 2026)

Legend:
PYR1^DIAZI = target: T1, PYR1^DIAZI (Arabidopsis thaliana, UniProt O49686, A160V/E8G/F108Y/F159G/L87M/M158V/V81Y); experiment: cell-based
T1 construct: expressed in transfected cells; host or cells: S. cerevisiae (2µ plasmid)
T1 sequence (O49686 1-191 E8G/V81Y/L87M/F108Y/M158V/F159G/A160V): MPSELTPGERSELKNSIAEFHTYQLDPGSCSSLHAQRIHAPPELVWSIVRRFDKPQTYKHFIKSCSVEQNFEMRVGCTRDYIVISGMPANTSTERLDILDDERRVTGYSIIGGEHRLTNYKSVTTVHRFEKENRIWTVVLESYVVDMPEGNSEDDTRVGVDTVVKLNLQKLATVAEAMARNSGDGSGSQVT
T1 sequence (Q9CAJ0 178-511 partner): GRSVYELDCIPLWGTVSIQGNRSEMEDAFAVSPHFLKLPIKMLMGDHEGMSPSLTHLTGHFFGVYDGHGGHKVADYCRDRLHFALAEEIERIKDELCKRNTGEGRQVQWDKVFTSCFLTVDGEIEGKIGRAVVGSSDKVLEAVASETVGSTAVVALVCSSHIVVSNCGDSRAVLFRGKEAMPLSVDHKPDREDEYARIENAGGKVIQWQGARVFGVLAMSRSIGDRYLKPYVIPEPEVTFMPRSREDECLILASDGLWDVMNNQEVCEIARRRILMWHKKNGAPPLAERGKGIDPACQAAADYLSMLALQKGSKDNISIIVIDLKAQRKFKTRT
Text: (§1) PYR1 variants were used to drive gene expression in an inducible genetic circuit by fusing a zinc finger DNA binding domain (Z4^32) to the N-terminus of PYR1, and the VP64 activation domain 33 to the N-terminus of ΔN-HAB1. The SV40 nuclear localization signal was also fused to the N-terminus of PYR1. A single 2u plasmid was used to express SV40-Z4DBD-PYR1 and VP64-HAB1, while the GFP expression cassette (Z44-CYCcore-GFP-CYC 1term) was integrated at the YPRCΔ15 site on chromosome XVI. GFP fluorescence induced by each circuit was measured 12 h after ligand addition to 1 mL cultures, 30° C. Fluorescence was measured by flow cytometry. […] The fluorescence intensity of each cell was measured using a BD Accuri C6 flow cytometer equipped with auto-loading. The forward scatter, side scatter, and GFP fluorescence (Ex/Em 488/533 nm) were recorded for a minimum of 10,000 events. […]
(§2) Three single transformants were picked from selection plates, inoculated in 2 mL of SD-Ura containing 2% glucose in 14 mL culture tubes. After 24 hours of growth at 30° C. in a shaker incubator (200 rpm), the OD600 of each sample was measured and cultures were back diluted to OD600=0.2 in fresh SD-Ura, the total volume of diluted culture was 9 mL. […] The fluorescence intensity of cells within each sample was measured using a BD Accuri C6 flow cytometer equipped with auto-loading from 96 well plates. […]

PYR1^PIRI = target: T2, PYR1^PIRI (Arabidopsis thaliana, UniProt O49686, A160T/E130G/F159T/K59R/N119S/S122Q/S92M/V174A); experiment: cell-based
T2 construct: expressed in transfected cells; host or cells: S. cerevisiae (2µ plasmid)
T2 sequence (O49686 1-191 K59R/S92M/N119S/S122Q/E130G/F159T/A160T/V174A): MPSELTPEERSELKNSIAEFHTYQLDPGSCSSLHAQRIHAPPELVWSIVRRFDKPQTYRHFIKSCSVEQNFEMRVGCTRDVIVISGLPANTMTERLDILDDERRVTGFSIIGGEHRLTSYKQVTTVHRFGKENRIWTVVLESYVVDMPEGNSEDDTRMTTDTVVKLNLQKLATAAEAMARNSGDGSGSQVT
T2 sequence (Q9CAJ0 178-511 partner): T1 sequence (Q9CAJ0 178-511 partner)
Text: as §1, §2

## CCOP(=O)(OCC)Oc1ccc([N+](=O)[O-])cc1 [Paraoxon]
PYR1^DIAZI
  EC50: 1.24 µM
PYR1^PIRI
  EC50: 2.37 µM
